For series [1], the system named is cell growth. As to conditions: read-out: IC50 value; 24 h, 37° C.; cytotoxicity.
Series [2] has as its system mouse. To be noted: oral toxicity; cited from earlier work.
Series [3] is described as follows: Methylating reaction with methylcobalamin under exposure to light and/or heating, speciation by HPLC-ICP-MS. As to conditions: TMAO as starting material, no GSH (test numbers 82-100 even), tris HCl buffer pH 8, 2 hours.

pIC50: −log10 of the molar value.

Here are results for three substances from patent publication US20100286424A1 (priority 2007, published 2010).

What is called pIC50 is the IC50 on a negative log10 scale, so that one unit is a factor of ten.

For trimethylarsineoxide, the pIC50 in series [1] is under 2.22. The LD50 in series [2] is given as 10,600 mg/kg. Also, the “stability in the reaction conditions (degradation into iAs (III), iAs(V), MMA or DMA)” value in series [3] is on record as “no degradation”.
Consider arsenocholine, for which the LD50 in series [2] is reported as 6,000 mg/kg.
In the case of monomethyl arsonic acid, the pIC50 in series [1] was under 2.22. Also, in series [2], the LD50 is reported as 1,800 mg/kg.
